Laboratory results: patent US20110280881A1, “NOVEL ANTI-HSP90 MONOCLONAL ANTIBODY” (RIKEN, priority 2010, published 2011)

B1: IFNβ: cytokine (protein, UniProt P01574 22-187, looked up)
Interferon beta: MSYNLLGFLQRSSNFQCQKLLWQLNGRLEYCLKDRMNFDIPEEIKQLQQFQKEDAALTIYEMLQNIFAIFRQDSSSTGWNETIVENLLANVYHQINHLKTVLEEKLEKEDFTRGKLMSSLHLKRYYGRILHYLKAKEYSHCAWTIVRVEILRNFYFINRLTGYLRN
B2: IL-3: cytokine (protein, UniProt P08700 20-152, looked up)
Interleukin-3: APMTQTTPLKTSWVNCSNMIDEIITHLKQPPLPLLDFNNLNGEDQDILMENNLRRPNLEAFNRAVKSLQNASAIESILKNLLPCLPLATAAPTRHPIHIKDGDWNEFRRKLTFYLKTLENAQAQQTTLSLAIF

System: DC2.4 cells and mouse GM-CSF-dependent BMDC
Test: Influence of cytokines on expression of cell surface HSP90 (FACS with 6H8)
Format: cell-based
Experimental: In view of the possibility that cytokines are variation factors for the expression of cell surface HSP90, the influences of various cytokines on the expression of cell surface HSP90 were examined as described below. DC2.4 cells and mouse GM-CSF-dependent BMDC were incubated in the presence (bold lines in FIG. 5A) or in the absence (thin lines in FIG. 5A) of IFNα (500 U/ml), IFNβ (500 U/ml), or IFNγ (50 ng/ml) with 5% CO2 at 37° C. for 24 hours, and cell surface HSP90 stained using the 6H8 antibody was analyzed by FACS. As a result, it was confirmed that the expression of cell surface HSP90 was increased with the addition of IFN α, β, and γ to the culture broth (FIG. 5A). The grey areas show the results of staining with PE-Cy5 alone as negative controls.
The solid bars indicate the MFI for cells treated with the cytokines in FIG. 5A; the grey bars indicate the MFI for cells incubated in the presence of a low concentration of IFNα (100 U/ml), IFNβ (100 U/ml), or IFNγ (10 ng/ml). The open bars indicate the results for the MFI incubated in the absence of the cytokines as negative controls.
The solid bars indicate the MFI for BMDC incubated in the presence of high concentrations of IFNs (as in FIG. 5B) or other cytokines (100 ng/ml); the grey bars indicate the MFI for BMDC incubated in the presence of low concentrations of IFNs (as in FIG. 5B) or other cytokines (10 ng/ml). […]

Molecule	expression of cell surface HSP90 after IFN treatment (DC2.4 and mouse GM-CSF-dependent BMDC, 24 hours, IFNα 500 U/ml, IFNβ 500 U/ml, IFNγ 50 ng/ml)	MFI of cell surface HSP90 after cytokine treatment versus negative control (BMDC, cytokines 100 ng/ml or 10 ng/ml)
B1	increased	
B2		no significant difference from the negative control
